The subject of this data set is memory/learning dysfunctions in the passive avoidance response. The experiment in a line: Passive avoidance response test, drug administered alone without MK-801. It is filed as in vivo, Wistar male rats. Particulars: drug alone without MK-801, passive avoidance response, rats. The protocol: Then, 10 seconds later, a slide door set at the border between the dark box and the light box was opened. Due to the habits of the rats, once the rats entered into the dark box, the slide door was quickly closed. At three seconds after entering into the dark box, an electroconvulsive shock ([…], for 3 seconds) was given to the rats. The period between the time just after the slide door was opened and the time at which the rats entered into the dark box was measured as a step-through latency. […] On Day 2 of the experiment, the testing session was carried out about 24 hours after the training session. […] The procedures of the testing session were carried out in the same manner to the training session except that no electroconvulsive shock was given. The step-through latency at the testing session was measured up to 300 seconds, and the step-through latency over 300 seconds was regarded as 300 seconds. […] The statistical analysis of the % of animals avoiding was done by x^2 test with Bonferroni's correction. The animals were used in a group of 10 to 25 animals per group, and the data was expressed by percentage.

For the molecule `Cc1cc2c(s1)Nc1ccccc1N=C2N1CCN(C)CC1` [Olanzapine, olanzapine], the “Minimum dose to induce memory dysfunction by single application” value is listed as 3 mg/kg, p.o.
